# How the values were obtained:
# MCF-7/HER-218 cells = assay: S-phase fraction of cells; type: cell-based, human
# MCF-7/HER-218 tumors = assay: Athymic nude mouse model, MCF-7/HER-218 tumor growth; type: in vivo, mice
# Method: Ovariectomised female BALB/c-nu+/nu+ mice 4-5 weeks of age were purchased from Harlan Sprague-Dawley (Madison, Wis.). Methods for housing and maintenance of the animals were in accordance to institutional guidelines and were previously described. Estrogen pellets (0.25 mg, 21 day release) were purchased from Innovative Research (Rockville, Md.) and half a pellet placed subcutaneously in the interscapular area of each animal on the day prior to cell injection. MCF-7/HER-218 cells were grown in 150 cm^3 flasks and split 1:5 in DMEM (Invitrogen, Calif.) supplemented with 10% FBS. When flask cell confluence reached 90-100%, cells were harvested using a soft rubber scraper, then spun down at 1000 rpm for 3 minutes, and resuspended in the original media for injection. Cells were injected at 5×10^6−1×10^7 in 0.2 ml per animal in the right mammary fat pad. […] Animals in each one of these groups were either given concomitant Herceptin (10 mg/kg) or control vehicle. Each individual group had 8 animals (n=8). Herceptin or vehicle were given intraperitoneally at a dose of 10/mg/kg twice a week.. Tumors were subsequently measured weekly and recorded according to the formula: Tumor volume=width^2×length/2. Animal were weighed every 2 weeks and monitored for toxicity. […] Values are expressed as relative to tumor volume to size at the beginning of treatment as mean ±s.d.
# MCF-7 cells = assay: S-phase fraction of cells; type: cell-based, human; conditions: Herceptin with heregulin
# parental MCF-7 tumors = assay: Parental MCF-7 tumor growth; type: in vivo, mice; conditions: Herceptin
substance,measurement,setting,value
Herceptin: Trastuzumab binds to the HER-2 protein receptor on the surface of cells; blocks the HER-2 pathway,Estrogen's effects on S-phase fraction,MCF-7/HER-218 cells; Herceptin with estrogen,only modestly inhibited
same,Stimulatory effect of tamoxifen and heregulin on S-phase fraction,MCF-7/HER-218 cells; Herceptin with tamoxifen or heregulin,abrogated
same,Basal S-phase fraction,"MCF-7/HER-218 cells; Herceptin, control conditions",reduced
same,Effect on estrogen-induced tumor growth,"MCF-7/HER-218 tumors; Herceptin 10 mg/kg with continued estrogen, compared to estrogen alone",slow estrogen-induced growth of MCF-7/HER-218 tumors slightly
same,Effect on agonist properties of tamoxifen on tumor growth,MCF-7/HER-218 tumors; concomitant Herceptin with estrogen deprivation plus tamoxifen,abolished
same,Heregulin-increased S-phase fraction,MCF-7 cells,blocked
same,Estrogen-mediated tumor growth,parental MCF-7 tumors,unaffected

# From patent publication US20030224467A1, “AIB1 as a prognostic marker and predictor of resistance to endocrine therapy” (priority 2002, published 2003)
